Earlier results, collected in patent US20210037830A1, “PHYTOTOXIC MICRONUTRIENT COMBINATIONS FOR SELECTIVE CONTROL OF INVASIVE PLANT SPECIES” (Edaphix, LLC, priority 2019, published 2021).

System: humans
Details: 2005 carcinogen assessment guidelines; cited from earlier work

OB(O)O [boric acid]
U.S. EPA carcinogenicity classification: not likely to be carcinogenic to humans
